Test results reported in US10383846B2, “Method of dosing and use of soft anticholinergic esters” (dated 2019).

Test system: Axillary sweat production
Assay: Axillary sweat production measured by gravimetric method (filter paper) in a human subject after topical dosing
Details: for Percent Change from Baseline in sweat production: right axilla

(2R,3′R) 3-(2-cyclopentyl-2-phenyl-2-hydroxyacetoxy)-1-(methoxycarbonylmethyl)-1-methylpyrrolidinium bromide
reduction of sweat production compared to baseline (5% solution in 70% ethanol, treated axilla): more than 50% | duration of efficacy (sweat reduction) (5% solution topical): up to 24 hours | Percent Change from Baseline in sweat production (8 hours After 2nd Dose, 0.5 mL of 5% solution in 70% ethanol once a day): −50% | Percent Change from Baseline in sweat production (8 hours After 3rd Dose, 0.5 mL of 5% solution in 70% ethanol once a day): −50% | Percent Change from Baseline in sweat production (8 hours After 4th Dose, 0.5 mL of 5% solution in 70% ethanol once a day): −56% | Percent Change from Baseline in sweat production (Average for the entire treatment period, 5% solution): −52%
